In PubChem BioAssay AID1964107 (National Center for Advancing Translational Sciences (NCATS), 2024):
This is a selection; strong and weak results do not stand in their true shares. Some results for these compounds are left out of this collection, so the calls shown say nothing about other tests. Records with an inconclusive call do not appear. The source made the active and inactive calls. Calls follow the shape of the full dose curve.

What follows are compounds tested against Polyprotein P1234 (Chikungunya virus (strain S27-African prototype)) (UniProt Q8JUX6) (assay: Primary qHTS for inhibitors of NSP2Pro chikungunya virus (CHIKV)). Settings: FRET peptide cleavage, fluorescence 1 h; at 24.9 µM (top of the series).
% is scaled to controls: 0 for no effect and ±100 for the full control effect.
Also: nearly all actives have a fitted effect of over 60% in size.

Which activity change, negative = inhibition does the source give for `CN(C)C1(CNC(=O)c2ccccc2F)CCCCC1` here?
Its activity change, negative = inhibition is inactive: 29.8%.

Which activity change, negative = inhibition does the source give for `CN(C)C1(CNC(=O)c2cccc(Cl)c2)CCCCC1` here?
Its activity change, negative = inhibition is inactive: 2.33%.

Which activity change, negative = inhibition does the source give for `O=C(C1CCC1)N1CCN(C/C=C/c2ccccc2)CC1` here?
The activity change, negative = inhibition was inactive: -0.384%.

Which activity change, negative = inhibition does the source give for `CCOc1cccc(C(=O)NCC2(N(C)C)CCCCC2)c1` here?
Its activity change, negative = inhibition is inactive: -7.79%.

With `CCCCOc1ccccc1C(=O)NCC1(N(C)C)CCCCC1` as the compound, how does the activity change, negative = inhibition read?
Its activity change, negative = inhibition is inactive: -15%.

For `CN(C)C1(CNC(=O)c2ccccc2[N+](=O)[O-])CCCCC1`, which activity change, negative = inhibition is on record?
Its activity change, negative = inhibition is inactive: -15%.

How did the activity change, negative = inhibition turn out when `COc1ccc(C(=O)NCC2(N(C)C)CCCCC2)cc1Cl` was run?
Its activity change, negative = inhibition is inactive: 0.528%.

Which activity change, negative = inhibition does the source give for `CC(C)Oc1ccc(C(=O)NCC2(N(C)C)CCCCC2)cc1` here?
The activity change, negative = inhibition was inactive: 25.1%.

Which activity change, negative = inhibition does the source give for `COc1cc(C(=O)NCC2(N(C)C)CCCCC2)cc(OC)c1OC` here?
Its activity change, negative = inhibition is inactive: 24.2%.

How did the activity change, negative = inhibition turn out when `Cc1cccc(C(=O)NCC2(N(C)C)CCCCC2)c1` was run?
Its activity change, negative = inhibition is inactive: -4.15%.

Which activity change, negative = inhibition does the source give for `CC(C)COc1ccc(C(=O)NCC2(N(C)C)CCCCC2)cc1` here?
Its activity change, negative = inhibition is inactive: 4.29%.

How did the activity change, negative = inhibition turn out when `COc1cccc(C(=O)NCC2(N3CCOCC3)CCCCC2)c1` was run?
Its activity change, negative = inhibition is inactive: -17.2%.
